Experimental data published in PubChem BioAssay AID493001 (Johns Hopkins Ion Channel Center, 2010).
This is a selection; strong and weak results do not stand in their true shares. Calls of active or inactive are those of the source.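 The calls were made as follows: active = duplicate-averaged calcium rise in uninduced cells above buffer wells' mean plus 5 SD; inactive = the rest.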

assay: compound-evoked calcium rise in non-induced M3R cells, confirmation, artefact control for RGS4 inhibitor project, cell-based, HEK293 M3R, no carbachol, second counter-screen (AID 493001); details: Fluo-4 calcium, at 10 µM

| SMILES | outcome |
| --- | --- |
| CCc1nc2c(n1)c1c(non1O)c1c2no[n+]1[O-] | inactive |
